This data set concerns the molecule itself. Description: SEC; HP-SEC on TSKgel G3000SWxl, PBS with 0.1 M Na2SO4, 0.5 mL/min, detection at 280 nm; BSA (67 kDa) as size marker. On the technique in general: Size exclusion chromatography separates by hydrodynamic size, large species first.

B1: recombinant human ferritin light chain (natural protein, UniProt P02792 1-175, looked up)
chain: MSSQIRQNYSTDVEAAVNSLVNLYLQASYTYLSLGFYFDRDDVALEGVSHFFRELAEEKREGYERLLKMQNQRGGRALFQDIKKPAEDEWGKTPDAMKAAMALEKKLNQALLDLHALGSARTDPHLCDFLETHFLDEEVKLIKKMGDHLTNLHRLGGPEAGLGEYLFERLTLKHD
notes: human ferritin light chain, UniProtKB P02792; codon-optimised gene, amplified with primers from the start codon (…) to the stop codon; tag-free; Tag-free; Assembled nanoparticle; the number of subunits in the rhFTL particle is not measured here (the introduction says natural human ferritin generally contains 24 subunits); ESI-MS mass 19878.0 Da, said to coincide with the theoretical value; the …
Consider B1, for which the binding result is on record as “binds”.
